Source: article PMC8691596
Each block holds one substance with its values, some of them ahead of it.

Chains of the proteins cited; added tags and fusions are not shown. Where a name states a change or a piece, a line headed by the entry shows the natural chain unless it says otherwise. A line that says so, or that is headed by a name, gives the form on record, which may keep a tag or linker.
UniProt O75015: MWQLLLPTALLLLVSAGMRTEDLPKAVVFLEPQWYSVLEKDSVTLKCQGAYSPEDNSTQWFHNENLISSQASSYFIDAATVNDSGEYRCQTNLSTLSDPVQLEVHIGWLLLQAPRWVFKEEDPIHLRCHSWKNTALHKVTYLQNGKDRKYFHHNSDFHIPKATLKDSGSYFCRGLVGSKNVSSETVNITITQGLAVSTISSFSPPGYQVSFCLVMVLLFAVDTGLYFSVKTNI
anti-CD20 IgG1 L234S/L235T/G236R (human), light, as listed by the source, chain 2 of 2: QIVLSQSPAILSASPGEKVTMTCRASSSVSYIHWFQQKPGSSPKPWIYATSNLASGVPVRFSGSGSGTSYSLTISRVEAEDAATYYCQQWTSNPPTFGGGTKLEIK
anti-CD3 (muromonab variable regions) human IgG1 wild type reference (human), light, as listed by the source, chain 2 of 2: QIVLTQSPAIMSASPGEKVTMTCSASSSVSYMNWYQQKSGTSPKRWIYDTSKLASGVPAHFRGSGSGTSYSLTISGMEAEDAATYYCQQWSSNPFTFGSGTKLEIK
anti-CD20 IgG1 L234S/L235T/G236R (human), heavy, as listed by the source, chain 1 of 2: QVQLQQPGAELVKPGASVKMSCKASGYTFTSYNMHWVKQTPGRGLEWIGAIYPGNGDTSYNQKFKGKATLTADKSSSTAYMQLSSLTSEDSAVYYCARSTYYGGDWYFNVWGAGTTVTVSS
anti-CD52 (alemtuzumab variable regions) human IgG1 wild type reference (human), heavy, as listed by the source, chain 1 of 2: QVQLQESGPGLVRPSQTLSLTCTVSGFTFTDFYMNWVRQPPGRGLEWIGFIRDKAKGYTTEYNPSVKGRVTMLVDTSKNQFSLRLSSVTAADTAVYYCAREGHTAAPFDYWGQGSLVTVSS
anti-CD52 (alemtuzumab variable regions) human IgG1 wild type reference (human), light, as listed by the source, chain 2 of 2: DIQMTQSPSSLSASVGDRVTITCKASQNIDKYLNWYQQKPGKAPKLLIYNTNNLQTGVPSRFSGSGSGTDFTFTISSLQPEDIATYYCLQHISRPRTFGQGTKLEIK

Columns and labels:
[1] = target: human FcγRIIIa (CD16a) V158 allele, histidine-tagged recombinant (human) (UniProt P08637); assay: SPR; His-tagged Fc receptor captured by anti-histidine antibody immobilised on CM5; antibody injected at 100 μg/mL for 1 min; response about 5 s before end of injection, blank subtracted; 25°C, HBS-EP+; Biacore T200
[2] = target: rat FcγRI (CD64), histidine-tagged recombinant (rat); assay: as above
[3] = target: human FcγRIIIb (CD16b) NA2 allele, histidine-tagged recombinant (human) (UniProt O75015); assay: as above
[4] = target: human FcγRIIIa (CD16a) F158 allele, histidine-tagged recombinant (human) (UniProt P08637); assay: as above
[5] = target: anti-CD20 IgG1 L234S/L235T/G236R (human); assay: ELISA; antibody coated at 10 μg/mL on Maxisorp plates; HRP-labelled C1q at 100 ng/mL; room temperature
[6] = target: anti-CD20 (rituximab variable regions) human IgG1 wild type reference (human); assay: as above
[7] = target: anti-CD3 (muromonab variable regions) human IgG1 wild type reference (human); assay: as above
[8] = target: anti-CD3 IgG1 L234A/L235A (LALA) (human); assay: as above
[9] = target: anti-CD20 IgG1 L234T/L235T/G236R (human); assay: as above
[10] = target: anti-CD3 IgG1 N297Q (aglycosyl) (human); assay: as above
[11] = target: anti-CD3 IgG1 L234S/L235T/G236R (human); assay: as above
[12] = target: anti-CD3 IgG1 L234G/L235S/G236R (human); assay: as above
[13] = target: anti-CD52 (alemtuzumab variable regions) human IgG1 wild type reference (human); assay: as above
[14] = target: anti-CD3 IgG1 L234A/L235A/P329G (LALAPG) (human); assay: as above
[15] = target: anti-CD20 IgG1 L234A/L235A/P329G (LALAPG) (human); assay: as above
[16] = target: anti-CD3 IgG1 L234T/L235T/G236R (human); assay: as above
[17] = target: anti-CD20 IgG1 L234G/L235S/G236R (human); assay: as above
[18] = target: anti-CD3 IgG1 L234S/L235V/G236R (human); assay: as above
[19] = target: anti-CD20 IgG1 L234T/L235Q/G236R (human); assay: as above
[20] = target: anti-CD3 IgG1 L234T/L235Q/G236R (human); assay: as above
[21] = target: anti-CD20 IgG1 L234S/L235V/G236R (human); assay: as above

mean response [1]: 692 RU | mean response [2]: 790 RU | mean response [3]: 145 RU
Substance: anti-CD3 (muromonab variable regions) human IgG1 wild type reference (antibody)

mean response [4]: 260 RU
Substance: anti-CD3 (muromonab variable regions) human IgG1 wild type reference (antibody; other documents disagree on this pair)

mean normalised absorbance (% of wild-type reference) [5]: 3.3% | mean normalised absorbance (% of wild-type reference) [6]: 100% | mean normalised absorbance (% of wild-type reference) [7]: 100% | mean normalised absorbance (% of wild-type reference) [8]: 9.3% | mean normalised absorbance (% of wild-type reference) [9]: 3.7% | mean normalised absorbance (% of wild-type reference) [10]: 9.3% | mean normalised absorbance (% of wild-type reference) [11]: 8.4% | mean normalised absorbance (% of wild-type reference) [12]: 9.1% | mean normalised absorbance (% of wild-type reference) [13]: 100% | mean normalised absorbance (% of wild-type reference) [14]: 8.5% | mean normalised absorbance (% of wild-type reference) [15]: 4.5% | mean normalised absorbance (% of wild-type reference) [16]: 8.6% | mean normalised absorbance (% of wild-type reference) [17]: 3.2% | mean normalised absorbance (% of wild-type reference) [18]: 7.9% | mean normalised absorbance (% of wild-type reference) [19]: 4.2% | mean normalised absorbance (% of wild-type reference) [20]: 8.3% | mean normalised absorbance (% of wild-type reference) [21]: 4%
Substance: human C1q, HRP-labelled (from UniProt P02745 23-245; P02746 28-253; P02747 29-245) (complex)
